Laboratory results taken from PMC6073470 (International Journal of Molecular Sciences, 2018).

Molecular target: the molecule itself
Experiment: SEC; Superdex 200 HR 10/30; 20 mM Tris/acetate pH 7.6, 150 mM NaCl, 0.1 mM EDTA, 0.1 mM PMSF, 15 mM beta-mercaptoethanol; 10-120 ug protein in 100 uL loaded; apparent mass from calibration, estimated number of subunits

B1: human small heat shock protein HspB4 (alphaA-crystallin), wild type (natural protein, UniProt P02489 1-173, looked up)
chain: MDVTIQHPWFKRTLGPFYPSRLFDQFFGEGLFEYDLLPFLSSTISPYYRQSLFRTVLDSGISEVRSDRDKFVIFLDVKHFSPEDLTVKVQDDFVEIHGKHNERQDDHGYISREFHRRYRLPSNVDQSALSCSLSADGMLTFCGPKIQTGLDATHAERAIPVSREEKPTSAPSS
notes: HspB4 (alphaA-crystallin), human; UniProt P02489; Expressed from pET23b; The printed monomeric mass (19.9 kDa) fits the whole protein; also called αA-crystallin; wild type HspB4; source: E. coli BL21(DE3)pLysS, purified (ammonium sulfate fractionation, HiTrap Q HP, Superdex-200 SEC)
- stoichiometry N: ~30 monomers
